Literature values, collected in US20250197658A1, “ANTIOXIDANT STABILIZERS FOR DIRECT FABRICATION OF ORTHODONTIC APPLIANCES” (Align Technology, Inc., priority 2023, published 2025).

Conditions: cited from earlier work

## Vitamin E
  amount most people can take: up to 1000 mg/day
